# According to PubChem BioAssay AID1645881 (National Center for Advancing Translational Sciences (NCATS), 2021):
# Sequences of proteins named here, by UniProt entry; tags and fusion partners are left off.
# UniProt O95398, whole entry: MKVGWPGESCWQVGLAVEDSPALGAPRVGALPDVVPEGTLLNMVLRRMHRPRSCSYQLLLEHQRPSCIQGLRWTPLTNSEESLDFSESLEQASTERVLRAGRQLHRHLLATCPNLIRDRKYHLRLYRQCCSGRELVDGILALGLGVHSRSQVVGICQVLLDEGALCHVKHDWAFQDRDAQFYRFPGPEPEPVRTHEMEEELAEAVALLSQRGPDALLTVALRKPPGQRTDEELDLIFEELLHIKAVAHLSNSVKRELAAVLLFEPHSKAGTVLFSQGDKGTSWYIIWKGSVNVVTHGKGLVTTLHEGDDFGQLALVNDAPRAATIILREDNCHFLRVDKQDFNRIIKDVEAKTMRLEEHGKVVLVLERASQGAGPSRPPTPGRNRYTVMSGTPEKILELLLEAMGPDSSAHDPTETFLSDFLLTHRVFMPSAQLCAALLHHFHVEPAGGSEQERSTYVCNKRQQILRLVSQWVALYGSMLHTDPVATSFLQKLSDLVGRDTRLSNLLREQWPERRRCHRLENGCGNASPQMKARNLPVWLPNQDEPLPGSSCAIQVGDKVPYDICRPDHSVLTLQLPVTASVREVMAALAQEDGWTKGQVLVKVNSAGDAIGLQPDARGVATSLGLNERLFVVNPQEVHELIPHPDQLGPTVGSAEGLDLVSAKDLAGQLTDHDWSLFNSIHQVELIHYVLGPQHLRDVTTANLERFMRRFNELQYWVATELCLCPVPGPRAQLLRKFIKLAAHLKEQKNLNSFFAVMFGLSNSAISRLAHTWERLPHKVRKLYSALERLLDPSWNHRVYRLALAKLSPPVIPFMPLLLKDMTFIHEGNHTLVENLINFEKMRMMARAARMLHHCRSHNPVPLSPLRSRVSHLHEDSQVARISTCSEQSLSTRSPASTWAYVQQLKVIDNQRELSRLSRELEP
# Only a part is listed here, and it is no random draw. Inconclusive results are not listed. Activity calls are given as the source filed them. The call rests on the fitted dose curve; in most records, active means well fitted activation curve with a large enough effect; inconclusive means small, poorly fitted or top-dose-only effect; inactive means no such curve, though single readings can be large or run the other way.
# Target: Rap guanine nucleotide exchange factor 3 (Homo sapiens) (UniProt O95398)
# Assay: Confirmatory qHTS for agonist of cAMP-regulated guanine nucleotide exchange factor 3 (EPAC1);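 further: EPAC1 catalysed release of BODIPY-GDP from Rap1B seen as fluorescence loss; nearly all actives have a fitted effect of over 75% in size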
# Settings: EPAC1 Rap1B BODIPY-GDP exchange fluorescence, 100% = cAMP control response; at 154 µM (top of the series)
row,Compound,activation
1,CCCCn1nnnc1C(c1cc2ccccc2o1)N1CCC(n2c(=O)[nH]c3ccccc32)CC1 (stereo not drawn),inactive: 4.57%
2,O=c1[nH]c2ccccc2n1C1CCN(C(c2ccccc2OC(F)(F)F)c2nnnn2C2CCCC2)CC1 (stereo not drawn),inactive: -14.7%
3,CCC(c1nnnn1C(C)(C)C)N1CCC(n2c(=O)[nH]c3ccccc32)CC1 (stereo not drawn),inactive: -9.96%
